Only a part of the results on these compounds is given; other tests are left out.
Key:
[1] = tested on: male mice; assay: Acute toxicity per os
[2] = tested on: toxic adrenaline doses; assay: Protection against toxic adrenaline doses; format: in vivo, mouse (male mice CrI:CD 1(CR) BR); conditions: for PD50 (50% protective dose): 14.5 mg/kg l-adrenaline i.p. 2 hrs after oral treatment, mortality at 24 hrs; for protective activity compared with known drugs: oral, mice
[3] = tested on: phenylephrine (PHE) induced hypertension; assay: Antagonism against phenylephrine (PHE) induced hypertension; conditions: test drugs 1 mg/kg i.v.
[4] = tested on: male mice; assay: Anti-hypoxic activity (gasping time after decapitation); format: in vivo, mouse; conditions: pretreatment 90 min
[5] = tested on: SH rats (spontaneously hypertensive rats); assay: Anti-hypertensive activity in spontaneously hypertensive rats, tail artery plethysmography; format: in vivo, rat; conditions: SHR
[6] = tested on: platelet aggregation; assay: Collagen-induced platelet aggregation ex vivo; format: in vivo, rat; conditions: 0.15 mM/kg oral, blood 1 hr after treatment, collagen 2-4 mcg/ml
[7] = target: alpha2-adrenergic receptors (Rattus norvegicus, UniProt P22909); assay: Inhibition of 3H-Clonidine binding to rat brain membrane
[8] = target: serotoninergic2 (5-HT2) receptors (Rattus norvegicus, UniProt P14842); assay: Inhibition of 3H-Spiperone binding to rat brain membrane
[9] = tested on: alpha1-adrenergic receptors; assay: Inhibition of 3H-Prazosin binding to rat brain membrane

Chains of the proteins cited; added tags and fusions are not shown.
UniProt P22909, whole entry: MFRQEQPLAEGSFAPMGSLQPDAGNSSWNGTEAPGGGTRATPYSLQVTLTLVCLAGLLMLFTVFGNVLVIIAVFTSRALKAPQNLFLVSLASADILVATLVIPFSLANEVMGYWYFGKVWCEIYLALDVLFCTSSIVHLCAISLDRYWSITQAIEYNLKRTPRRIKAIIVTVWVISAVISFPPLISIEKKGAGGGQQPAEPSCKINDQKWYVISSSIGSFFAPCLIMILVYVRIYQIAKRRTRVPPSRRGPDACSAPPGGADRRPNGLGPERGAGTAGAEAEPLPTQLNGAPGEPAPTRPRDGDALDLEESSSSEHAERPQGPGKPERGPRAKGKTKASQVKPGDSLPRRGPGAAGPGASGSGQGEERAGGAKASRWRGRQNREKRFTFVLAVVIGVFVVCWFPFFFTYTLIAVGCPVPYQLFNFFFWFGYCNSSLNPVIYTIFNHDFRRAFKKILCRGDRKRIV
UniProt P14842, whole entry: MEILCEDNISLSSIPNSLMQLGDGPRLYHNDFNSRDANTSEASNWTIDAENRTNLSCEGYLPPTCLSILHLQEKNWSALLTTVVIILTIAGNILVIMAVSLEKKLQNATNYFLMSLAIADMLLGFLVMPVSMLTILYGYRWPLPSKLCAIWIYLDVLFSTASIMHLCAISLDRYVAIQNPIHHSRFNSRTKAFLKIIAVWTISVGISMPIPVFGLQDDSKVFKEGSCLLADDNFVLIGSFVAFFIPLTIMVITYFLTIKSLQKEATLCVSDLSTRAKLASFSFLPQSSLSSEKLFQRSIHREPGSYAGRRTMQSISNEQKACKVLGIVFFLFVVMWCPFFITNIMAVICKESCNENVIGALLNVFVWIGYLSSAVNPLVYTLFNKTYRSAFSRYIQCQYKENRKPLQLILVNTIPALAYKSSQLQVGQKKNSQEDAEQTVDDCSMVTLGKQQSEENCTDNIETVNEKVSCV

SMILES: CC(C)Oc1ccc2cc(C(O)CN3CCC(n4c(=O)[nH]c5ccccc54)CC3)ccc2c1 (centres unmarked)
- LD50 [1]: higher than 2000 mg/kg
- PD50 (50% protective dose) [2]: 10.0 mg/kg/p.o.

SMILES: CC(C)Oc1ccc2cc(C(O)C(C)N3CCC(n4c(=O)[nH]c5ccccc54)CC3)ccc2c1 (centres unmarked)
- PHE dosis causing a 50 mm Hg increase of the arterial pressure, in comparison with the controls [3]: 20-25 times
- Gasping time, % diff. from control ([4]; 50 mg/kg/p.o.): +39.3%
- Gasping time, % diff. from control ([4]; 100 mg/kg/p.o.): +85.7%
- PD50 (50% protective dose) [2]: 1.8 mg/kg/p.o.

SMILES: COc1cc2ccc(C(O)C(C)N3CCC(n4c(=O)[nH]c5ccccc54)CC3)cc2cc1OC (centres unmarked)
- PHE dosis causing a 50 mm Hg increase of the arterial pressure, in comparison with the controls [3]: 20-25 times
- LD50 [1]: higher than 1000 mg/kg
- Max. changes in systolic pressure ([5]; 1 mg/kg p.o.): -14.4 mmHg
- Max. changes in systolic pressure ([5]; 5 mg/kg p.o.): -31 mmHg
- Max. changes in systolic pressure ([5]; 15 mg/kg p.o.): -48.2 mmHg
- Gasping time, % diff. from control ([4]; 50 mg/kg/p.o.): +52.5%
- Gasping time, % diff. from control ([4]; 100 mg/kg/p.o.): +126.2%
- PD50 (50% protective dose) [2]: 0.95 mg/kg/p.o.
- protective activity compared with known drugs [2]: comparable with Prazosin

SMILES: COc1ccc2cc(C(O)C(C)N3CCC(n4c(=O)[nH]c5cc(Cl)ccc54)CC3)ccc2c1 (centres unmarked)
- Gasping time, % diff. from control ([4]; 100 mg/kg/p.o.): +61.3%
- PD50 (50% protective dose) [2]: 5.8 mg/kg/p.o.
- % Inhibition, Aggregation rate [6]: 64.6%
- % Inhibition, Maximum aggregation [6]: 64.0%

SMILES: COc1ccc2cc(C(O)CN3CCC(n4c(=O)[nH]c5ccccc54)CC3)ccc2c1 (centres unmarked)
- % Inhibition of specific binding ([7]; 5.4 × 10^-6 M): 13%
- % Inhibition of specific binding ([7]; 5.4 × 10^-7 M): 0%
- LD50 [1]: higher than 2000 mg/kg
- Max. changes in systolic pressure ([5]; 1 mg/kg p.o.): -13.6 mmHg
- Max. changes in systolic pressure ([5]; 5 mg/kg p.o.): -39 mmHg
- Max. changes in systolic pressure ([5]; 15 mg/kg p.o.): -68 mmHg
- PD50 (50% protective dose) [2]: 5.4 mg/kg/p.o.
- % Inhibition of specific binding ([8]; 5.4 × 10^-6 M): 83%
- % Inhibition of specific binding ([8]; 5.4 × 10^-7 M): 36%

SMILES: COc1cc2ccc(C(O)CN3CCC(n4c(=O)[nH]c5ccccc54)CC3)cc2cc1OC (centres unmarked)
- PD50 (50% protective dose) [2]: 5.05 mg/kg/p.o.

SMILES: CSc1ccc2cc(C(O)C(C)N3CCC(n4c(=O)[nH]c5ccccc54)CC3)ccc2c1 (centres unmarked)
- % Inhibition of specific binding ([7]; 5.4 × 10^-6 M): 26.5%
- % Inhibition of specific binding ([7]; 5.4 × 10^-7 M): 8%
- LD50 [1]: higher than 2000 mg/kg
- % Inhibition of specific binding ([9]; 5.4 × 10^-6 M): 99%
- % Inhibition of specific binding ([9]; 5.4 × 10^-7 M): 99%
- PD50 (50% protective dose) [2]: 0.6 mg/kg/p.o.
- protective activity compared with known drugs [2]: comparable with Prazosin
- % Inhibition of specific binding ([8]; 5.4 × 10^-6 M): 25%
- % Inhibition of specific binding ([8]; 5.4 × 10^-7 M): 0%

— patent US4902799A, “Bicyclic alkoxy- and alkylthio-substituted aminoalcohols” (Maggioni-Winthrop S.p.A., priority 1985, dated 1990)
